# Apparent affinities of Ab-91 variants for a coronavirus HR2 peptide

Values reported by Engelhart et al. 2022, doi:10.1038/s41597-022-01779-4 (FLAb copy).

All variants were tested on one target, the spike HR2 peptide PDVDLGDISGINAS (SARS-CoV-2).

Parent: Ab-91, a human scFv built as VL, the linker GGGGSGGGGSGGGGS, VH. Only the CDRs of the heavy chain vary.
VL: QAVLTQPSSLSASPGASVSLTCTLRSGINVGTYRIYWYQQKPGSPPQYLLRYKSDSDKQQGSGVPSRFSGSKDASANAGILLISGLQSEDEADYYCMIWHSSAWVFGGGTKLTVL
VH: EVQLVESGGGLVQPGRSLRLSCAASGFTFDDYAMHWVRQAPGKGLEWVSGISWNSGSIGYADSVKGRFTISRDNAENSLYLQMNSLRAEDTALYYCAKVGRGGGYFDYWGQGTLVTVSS

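In library AAYL51, one, two or three CDR residues were substituted; doubles and triples were drawn at random. The scFvs were displayed on barcoded MATa yeast, the peptide on MATalpha yeast. Mating (16 h, 30 °C) was followed by selection of diploids and sequencing of their barcodes. A regression on co-assayed BCL2-family reference pairs converts the normalised counts of each replicate to an apparent Kd. Each pool was mated in three replicate cultures.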

Positions count from residue 1 of the parent VH; I51S puts S in place of I. Values are log10 of the apparent Kd in nM; lower means stronger binding. Averages over replicates are reported, and they cover detected replicates only. "n.d." marks a missing value. The strain was present, yet no cells mated with the target were sequenced in that replicate, which points to weak or no binding. Background: pairings of library AAYL51 with three empty control strains gave a value in 21% of cases (median 4.54, 5th percentile 3.26). Values in that range, when seen in few replicates, are hard to tell from nonspecific mating. The control count says in how many pairings with the empty strains this scFv gave a signal, with their mean in brackets. In this assay the parent's reference entry averaged 1.86; its copy inside this library read 0.88.

changes	log10 Kd (nM) by replicate	mean, log10 nM	signal with controls
I51S I58W V64C	n.d. 5.20 n.d.	5.20	1 of 9 (4.90)
A33S I58C	1.04 1.02 0.17	0.74	2 of 9 (5.46)
D31K Y32I G56C	4.53 n.d. n.d.	4.53	3 of 9 (5.08)
A33L Y60G K65S	4.88 n.d. n.d.	4.88	1 of 9 (4.73)
T28E I58A V99C	n.d. n.d. n.d.	n.d.	3 of 9 (4.46)
F27Q Y32A Y108M	2.98 2.91 3.10	2.99	5 of 9 (4.51)
S57K V99I G104S	4.12 6.26 n.d.	5.19	3 of 9 (4.29)
S52D R101W G104N	3.51 3.67 4.21	3.80	2 of 9 (5.05)
F29Q I58M Y108W	n.d. 4.36 n.d.	4.36	4 of 9 (4.32)
A33I G100D G102V	n.d. n.d. n.d.	n.d.	0 of 9
F29Q D62C V64T	n.d. n.d. 4.66	4.66	1 of 9 (3.54)
A33P N54I V99L	n.d. n.d. n.d.	n.d.	0 of 9
T28H D30L Y60N	4.86 5.03 4.71	4.87	4 of 9 (5.03)
G50C N54Y S63N	n.d. n.d. n.d.	n.d.	2 of 9 (4.05)
G56W D62N G100L	n.d. n.d. n.d.	n.d.	0 of 9
A33R H35V G56R	n.d. n.d. n.d.	n.d.	0 of 9
F29K N54E G102L	n.d. n.d. n.d.	n.d.	1 of 9 (1.91)
N54L	4.46 4.30 n.d.	4.38	3 of 9 (4.88)
S52D S55E D107F	n.d. n.d. n.d.	n.d.	1 of 9 (3.23)
N54M S63D V99G	4.11 6.57 5.49	5.39	4 of 9 (4.36)
F29C D62E S63C	4.25 6.25 4.58	5.03	2 of 9 (4.54)
I58K V99P D107L	5.41 5.95 4.43	5.26	4 of 9 (4.93)
F29A G56D G103C	n.d. 5.28 4.83	5.05	4 of 9 (4.83)
H35V Y105F	n.d. 4.46 n.d.	4.46	0 of 9
G26R G50T Y105T	5.30 n.d. n.d.	5.30	4 of 9 (5.10)
Y32C G50W K65D	4.52 5.15 n.d.	4.83	6 of 9 (3.82)
A33K M34E D107S	4.34 4.79 n.d.	4.56	5 of 9 (4.87)
Y105W	1.12 1.23 0.69	1.01	2 of 9 (3.39)
Y32C S55T	4.69 6.75 5.67	5.70	5 of 9 (4.95)
A33F G50H S52A	5.44 4.73 n.d.	5.09	1 of 9 (6.44)
G50V G100L	n.d. n.d. n.d.	n.d.	1 of 9 (5.36)
T28K F29S A33H	4.53 n.d. n.d.	4.53	3 of 9 (4.45)
F29Y G59D G102Q	3.86 3.68 n.d.	3.77	5 of 9 (4.62)
Y32K S52M	4.97 4.75 4.39	4.70	3 of 9 (5.26)
F29W A33I S52I	n.d. n.d. n.d.	n.d.	0 of 9
D31K Y60K	3.11 4.12 3.56	3.60	4 of 9 (4.66)
Y32I W53K D107M	n.d. n.d. n.d.	n.d.	3 of 9 (4.61)
S52L G59A Y60C	4.52 5.64 n.d.	5.08	0 of 9
I58S Y105C	1.48 1.53 0.84	1.28	2 of 9 (5.18)
H35R N54I G59S	n.d. n.d. n.d.	n.d.	0 of 9
F29P I51T S55F	4.95 5.11 n.d.	5.03	1 of 9 (3.74)
W53D I58Y	4.44 5.13 5.65	5.08	8 of 9 (5.07)
S52D I58Q	n.d. n.d. n.d.	n.d.	3 of 9 (4.29)
F27K G50H S55Y	n.d. n.d. n.d.	n.d.	1 of 9 (3.06)
G50T G59R D107H	n.d. n.d. 4.28	4.28	0 of 9
T28D F106K	3.96 4.40 4.17	4.18	5 of 9 (4.63)
K65R Y105F F106L	1.27 1.20 0.75	1.07	2 of 9 (3.59)
M34G D62V S63R	n.d. n.d. n.d.	n.d.	0 of 9

Picked from the list: the 5 lowest averages where every replicate gave a value.

changes,log10 Kd (nM) by replicate,"mean, log10 nM",signal with controls
A33S I58C,1.04 1.02 0.17,0.74,2 of 9 (5.46)
Y105W,1.12 1.23 0.69,1.01,2 of 9 (3.39)
K65R Y105F F106L,1.27 1.20 0.75,1.07,2 of 9 (3.59)
I58S Y105C,1.48 1.53 0.84,1.28,2 of 9 (5.18)
F27Q Y32A Y108M,2.98 2.91 3.10,2.99,5 of 9 (4.51)